# From PubChem BioAssay AID588852 (The Scripps Research Institute Molecular Screening Center, 2011)
# By UniProt entry, the sequences of proteins in these tests, tags left out.
# UniProt P11229, whole entry: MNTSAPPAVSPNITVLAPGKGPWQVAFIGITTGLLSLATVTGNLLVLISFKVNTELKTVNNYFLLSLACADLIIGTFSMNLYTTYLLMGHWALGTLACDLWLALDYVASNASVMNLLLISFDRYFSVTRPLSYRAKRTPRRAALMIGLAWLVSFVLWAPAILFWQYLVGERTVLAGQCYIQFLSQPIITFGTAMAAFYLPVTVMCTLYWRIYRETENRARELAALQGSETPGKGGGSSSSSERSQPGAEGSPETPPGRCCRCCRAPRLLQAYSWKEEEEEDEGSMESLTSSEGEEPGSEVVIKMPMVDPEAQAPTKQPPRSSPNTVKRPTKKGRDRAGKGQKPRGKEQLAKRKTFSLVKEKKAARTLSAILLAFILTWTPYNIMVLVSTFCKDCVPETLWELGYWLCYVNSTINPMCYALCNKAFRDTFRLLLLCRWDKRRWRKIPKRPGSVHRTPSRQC
# The entries are a selection whose mix differs from that of the whole data set. Activity calls are given as the source filed them.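 The calls were made as follows: active = percent inhibition above its own plate's cutoff, namely the mean of that plate's compound wells plus 3 SD; inactive = the rest.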
# Target: Muscarinic acetylcholine receptor M1 (Homo sapiens) (UniProt P11229)
# Assay: CHRM1 blockers of acetylcholine calcium response – CHO-K1 cells, Fluo-8 calcium fluorescence, 1536-well, primary screen (AID 588852);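 also: peak over basal fluorescence ratio during 140 s after agonist addition; 0% = ACh EC80 plus DMSO and 100% = DMSO alone without agonist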
# Conditions: CHO-K1 hM1, Fluo-8 calcium fluorescence, ACh EC80 antagonist; at 3 µM; hits give high values
row,Compound,inhibition
1,O=c1[nH]c2ccccc2n1C1CCN(C(c2ccccc2OC(F)(F)F)c2nnnn2C2CCCCC2)CC1 (stereo not drawn),inactive: -29.3%
2,O=C(NCC1(N2CCCCC2)CCCCC1)c1ccc(Cl)nc1,inactive: -9.52%
3,Cc1cc(C)cc(N(C(=O)c2ccccc2)C2CCN(C(=O)OC(C)(C)C)CC2)c1,inactive: -14.3%
4,O=C(NCC1(N2CCOCC2)CCCCC1)c1cc2ccccc2o1,inactive: -13.2%
5,O=C(NCC1(N2CCCCC2)CCCCC1)c1ccc(F)cc1,inactive: -11.4%
6,CCCCOc1ccc(C(=O)NCC2(N3CCOCC3)CCCCC2)cc1,inactive: -3.29%
7,CCCCn1nnnc1C(c1cc2ccccc2o1)N1CCC(n2c(=O)[nH]c3ccccc32)CC1 (stereo not drawn),inactive: -24.5%
8,O=P1(N(CCCl)CCCl)SCCCS1,inactive: -0.43%
9,CCOC(=O)N1CCC(Nc2ccc(F)cc2)CC1,inactive: -6.88%
10,COc1ccc(NC2CCN(CCc3ccccc3)CC2)c(OC)c1,inactive: 10.7%
11,CC(C)(C)n1nnnc1C(c1ccccc1)N1CCC(n2c(=O)[nH]c3ccccc32)CC1 (stereo not drawn),inactive: 1.95%
12,O=C1CCN(Cc2ccccc2)CC1,inactive: -7.5%
13,CCOc1ccc(C)cc1CN(CCCl)CCCl,inactive: 8.58%
14,COc1cc(C(=O)NCC2(N(C)C)CCCCC2)ccc1OC(F)F,inactive: -4%
15,CCOC(=O)N1CCC(Nc2cccc(C)c2)CC1,inactive: -19.5%
16,O=c1[nH]c2ccccc2n1C1CCN(C(c2cccc3ccccc23)c2nnnn2C2CCCC2)CC1 (stereo not drawn),inactive: -31.3%
17,O=c1[nH]c2ccccc2n1C1CCN(C(c2ccccc2)c2nnnn2C2CCCCC2)CC1 (stereo not drawn),inactive: -21.4%
18,CCN1CCC(Nc2ccc(Cl)cc2)CC1,inactive: 4.18%
19,N#CC1(Nc2ccccc2)CCN(CCc2ccccc2)CC1,inactive: -15%
20,O=c1[nH]c2ccccc2n1C1CCN(C(c2ccccc2OC(F)(F)F)c2nnnn2C2CCCC2)CC1 (stereo not drawn),inactive: -14%
21,O=C(NCC1(N2CCCCC2)CCCCC1)c1cccc([N+](=O)[O-])c1,inactive: -1.78%
22,CSc1ccc(C(=O)NCC2(N3CCOCC3)CCCCC2)cc1,inactive: -6.27%

row,Compound,inhibition
1,CC(C)(C)n1nnnc1C(c1ccccc1OC(F)(F)F)N1CCC(n2c(=O)[nH]c3ccccc32)CC1 (stereo not drawn),inactive: -36.1%
2,O=C(NCC1(N2CCCCC2)CCCCC1)c1ccc(OC(F)F)cc1,inactive: -19.2%
3,O=C(NCC1(N2CCOCC2)CCCCC1)c1cc(=O)[nH]c2ccccc12,inactive: -4.43%
4,COc1cc(C(=O)NCC2(N3CCCCC3)CCCCC2)ccc1OC(F)F,inactive: 8.92%
5,CCCCn1nnnc1C(c1cccc2ccccc12)N1CCC(n2c(=O)[nH]c3ccccc32)CC1 (stereo not drawn),inactive: -24.6%
6,CC(C)c1ccc(C(=O)NCC2(N3CCOCC3)CCCCC2)cc1,inactive: -6.55%
7,COc1ccc(NC2CCN(C(=O)OC(C)(C)C)CC2)cc1,inactive: 1.55%
8,O=C(NCC1(N2CCCCC2)CCCCC1)c1cccc(C(F)(F)F)c1,inactive: -0.99%
9,COc1cc(OC)c(C(=O)NCC2(N(C)C)CCCCC2)cc1OC,inactive: -11.4%
10,O=C(NCC1(N2CCOCC2)CCCCC1)c1cc(F)c(F)cc1Cl,inactive: -5.89%
11,CCC(c1nnnn1C(C)(C)C)N1CCC(n2c(=O)[nH]c3ccccc32)CC1 (stereo not drawn),inactive: -24%
12,CCCCn1nnnc1C(c1ccnc2ccccc12)N1CCC(n2c(=O)[nH]c3ccccc32)CC1 (stereo not drawn),inactive: 19.7%
13,CCCCn1nnnc1C(c1ccccc1OC(F)(F)F)N1CCC(n2c(=O)[nH]c3ccccc32)CC1 (stereo not drawn),inactive: -23.6%
14,CC(C)c1ccc(NC2CCN(C(=O)OC(C)(C)C)CC2)cc1,inactive: -10%
15,COc1ccc(CN(CCCl)CCCl)cc1Cl,inactive: -2.57%
16,CN(C)c1cccc(C(=O)NCC2(N3CCCCC3)CCCCC2)c1,inactive: -0.51%
17,COc1ccc(C(c2nnnn2C2CCCC2)N2CCC(n3c(=O)[nH]c4ccccc43)CC2)cc1 (stereo not drawn),inactive: 2.39%
18,Cc1ccc(C(=O)NCC2(N(C)C)CCCCC2)o1,inactive: -4.61%
19,CCCOc1ccc(C(=O)NCC2(N(C)C)CCCCC2)cc1OC,inactive: -1.54%
20,O=C(NCC1(N2CCCCC2)CCCCC1)c1cncc(Br)c1,inactive: 0.86%
21,CN1CCC(Nc2cccc(F)c2)CC1,inactive: -2.66%
